In patent US6936585B2, “Corticotropin releasing factor 2 receptor agonists” (priority 2002, dated 2005):

Columns and labels:
CRF2R = target: T1, CRF2R (Homo sapiens, UniProt Q13324); assay: CRF2R agonist activation (EC50 / Emax), called comparative CRF binding; assay type: cell-based; conditions: for Emax: read-out: CRF2R Emax
T1 sequence (Q13324 1-411): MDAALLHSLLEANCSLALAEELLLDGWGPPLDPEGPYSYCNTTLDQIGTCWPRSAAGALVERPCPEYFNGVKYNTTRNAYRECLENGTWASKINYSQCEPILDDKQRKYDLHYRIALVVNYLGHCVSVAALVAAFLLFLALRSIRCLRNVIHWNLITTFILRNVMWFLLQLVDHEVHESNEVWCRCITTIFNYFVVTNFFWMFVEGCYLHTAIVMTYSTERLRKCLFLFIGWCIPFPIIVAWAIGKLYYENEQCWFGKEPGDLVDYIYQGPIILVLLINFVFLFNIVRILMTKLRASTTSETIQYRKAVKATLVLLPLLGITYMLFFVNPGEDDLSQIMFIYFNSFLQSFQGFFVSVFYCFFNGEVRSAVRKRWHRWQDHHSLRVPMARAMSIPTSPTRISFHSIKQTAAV
How it was run: (§1)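 CRFR-expressing cells + peptide vs vehicle; read-out cAMP (lysate assay) or CRE-linked reporter expression (luciferase, CAT, fluorescent protein, alkaline phosphatase, etc.). Signal compared against vehicle-treated cells.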

CRF1R = target: T2, CRF1R (Homo sapiens, UniProt P34998); assay: CRF1R agonist activation (EC50 / Emax), called comparative CRF binding; assay type: cell-based; conditions: for EC50: CRF1R EC50; for Emax: read-out: CRF1R Emax
T2 sequence (P34998 24-415): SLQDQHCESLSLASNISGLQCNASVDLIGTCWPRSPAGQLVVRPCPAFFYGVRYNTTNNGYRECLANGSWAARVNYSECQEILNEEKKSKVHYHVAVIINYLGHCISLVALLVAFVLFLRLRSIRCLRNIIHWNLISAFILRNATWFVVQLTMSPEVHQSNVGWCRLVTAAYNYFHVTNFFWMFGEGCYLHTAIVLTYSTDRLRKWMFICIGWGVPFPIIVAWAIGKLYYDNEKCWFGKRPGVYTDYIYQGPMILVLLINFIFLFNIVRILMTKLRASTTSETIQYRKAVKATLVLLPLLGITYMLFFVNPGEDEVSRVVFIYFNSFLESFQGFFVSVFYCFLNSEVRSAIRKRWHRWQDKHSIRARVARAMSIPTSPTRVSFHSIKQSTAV
How it was run: as §1

Work on `CC[C@H](C)[C@H](NC(=O)[C@@H](NC(=O)[C@H](CC(=O)O)NC(=O)[C@H](CC(C)C)NC(=O)[C@H](CC(C)C)NC(=O)[C@H](CC(C)C)NC(=O)[C@H](CCCNC(=N)N)NC(=O)[C@H](CC(N)=O)NC(=O)[C@H](CC(N)=O)NC(=O)[C@H](C)NC(=O)[C@H](C)NC(=O)[C@H](CCC(N)=O)NC(=O)[C@H](CCC(N)=O)NC(=O)[C@H](CCCCN)NC(=O)[C@H](CCC(=O)O)NC(=O)[C@H](CCCCN)NC(=O)[C@H](CCC(=O)O)NC(=O)[C@H](CCC(N)=O)NC(=O)[C@H](CCCCN)NC(=O)[C@H](CCC(=O)O)NC(=O)[C@@H](NC(=O)[C@H](CCC(=O)O)NC(=O)[C@@H](NC(=O)[C@H](CCSC)NC(=O)[C@H](CCCCN)NC(=O)[C@H](CCCNC(=N)N)NC(=O)[C@H](CC(C)C)NC(=O)[C@H](CC(C)C)NC(=O)[C@H](CCC(N)=O)NC(=O)[C@H](Cc1ccccc1)NC(=O)[C@@H]1CCCN1C(=O)[C@@H](NC(=O)[C@H](CC(=O)O)NC(=O)[C@@H](NC(=O)[C@H](CO)NC(=O)[C@@H](NC(=O)[C@@H]1CCCN1C(=O)[C@@H]1CCCN1C(=O)CNC(=O)[C@@H]1CCC(=O)N1)[C@@H](C)CC)[C@@H](C)CC)C(C)C)[C@@H](C)CC)[C@@H](C)CC)[C@@H](C)O)C(N)=O` [compound 256] yielded an EC50 (CRF2R) of 0.0126 µM, an Emax (CRF2R) of 100% and an EC50 (CRF1R) of 0.254 µM. For the same compound, the Emax (CRF1R) was 100%.

In the case of `CC[C@H](C)[C@H](NC(=O)[C@@H](NC(=O)[C@H](CC(=O)O)NC(=O)[C@H](CC(C)C)NC(=O)[C@H](CC(C)C)NC(=O)[C@H](CC(C)C)NC(=O)[C@H](CCCNC(=N)N)NC(=O)[C@H](CC(N)=O)NC(=O)[C@H](CC(N)=O)NC(=O)[C@H](C)NC(=O)[C@H](C)NC(=O)[C@H](CCC(N)=O)NC(=O)[C@H](CCC(N)=O)NC(=O)[C@H](CCCCN)NC(=O)[C@H](CCC(=O)O)NC(=O)[C@H](CCCCN)NC(=O)[C@H](CCC(=O)O)NC(=O)[C@H](CCC(N)=O)NC(=O)[C@H](CCCCN)NC(=O)[C@H](CCC(=O)O)NC(=O)[C@@H](NC(=O)[C@H](CCC(=O)O)NC(=O)[C@@H](NC(=O)[C@H](CCSC)NC(=O)[C@H](CCCCN)NC(=O)[C@H](CCCNC(=N)N)NC(=O)[C@H](CC(C)C)NC(=O)[C@H](CC(C)C)NC(=O)[C@H](Cc1ccccc1)NC(=O)[C@H](C)NC(=O)[C@@H]1CCCN1C(=O)[C@H](CC(C)C)NC(=O)[C@H](CC(=O)O)NC(=O)[C@@H](NC(=O)[C@H](CO)NC(=O)[C@@H](NC(=O)[C@@H]1CCCN1C(=O)[C@@H]1CCCN1C(=O)CNC(=O)[C@@H]1CCC(=O)N1)[C@@H](C)CC)[C@@H](C)CC)[C@@H](C)CC)[C@@H](C)CC)[C@@H](C)O)C(N)=O` [compound 222], the EC50 (CRF2R) is reported as 0.0094 µM, the Emax (CRF2R) is reported as 100% and the EC50 (CRF1R) is reported as 0.384 µM. For the same compound, the Emax (CRF1R) was 95%.

Work on `CC[C@H](C)[C@H](NC(=O)[C@@H](NC(=O)[C@H](CC(=O)O)NC(=O)[C@H](CC(C)C)NC(=O)[C@H](CC(C)C)NC(=O)[C@H](CC(C)C)NC(=O)[C@H](C)NC(=O)[C@H](CC(N)=O)NC(=O)[C@H](CC(N)=O)NC(=O)[C@H](C)NC(=O)[C@H](C)NC(=O)[C@H](CCC(N)=O)NC(=O)[C@H](CCC(N)=O)NC(=O)[C@H](CCCCN)NC(=O)[C@H](CCC(=O)O)NC(=O)[C@H](CCCCN)NC(=O)[C@H](CCC(=O)O)NC(=O)[C@H](CCC(N)=O)NC(=O)[C@H](CCCCN)NC(=O)[C@H](CCC(=O)O)NC(=O)[C@@H](NC(=O)[C@H](CCC(=O)O)NC(=O)[C@@H](NC(=O)[C@@H](NC(=O)[C@H](CCCCN)NC(=O)[C@H](CCCNC(=N)N)NC(=O)[C@H](CC(C)C)NC(=O)[C@H](CC(C)C)NC(=O)[C@H](Cc1c[nH]c2ccccc12)NC(=O)[C@H](Cc1ccc(O)cc1)NC(=O)[C@@H]1CCCN1C(=O)[C@H](CC(C)C)NC(=O)[C@H](CC(=O)O)NC(=O)[C@@H](NC(=O)[C@H](CO)NC(=O)[C@@H](NC(=O)[C@@H]1CCCN1C(=O)[C@@H]1CCCN1C(=O)CNC(=O)[C@@H]1CCC(=O)N1)[C@@H](C)CC)[C@@H](C)CC)C(C)C)[C@@H](C)CC)[C@@H](C)CC)[C@@H](C)O)C(N)=O` [compound 311] yielded an Emax (CRF2R) of 100% and an Emax (CRF1R) of 29.7%.

Work on `CC[C@H](C)[C@H](NC(=O)[C@@H](NC(=O)[C@H](CC(=O)O)NC(=O)[C@H](CC(C)C)NC(=O)[C@H](CC(C)C)NC(=O)[C@H](CC(C)C)NC(=O)[C@H](CCCNC(=N)N)NC(=O)[C@H](CC(N)=O)NC(=O)[C@H](CC(N)=O)NC(=O)[C@H](C)NC(=O)[C@H](C)NC(=O)[C@H](CCC(N)=O)NC(=O)[C@H](CCC(N)=O)NC(=O)[C@H](CCCCN)NC(=O)[C@H](CCC(=O)O)NC(=O)[C@H](CCCCN)NC(=O)[C@H](CCC(=O)O)NC(=O)[C@H](CCC(N)=O)NC(=O)[C@H](CCCCN)NC(=O)[C@H](CCC(=O)O)NC(=O)[C@@H](NC(=O)[C@H](CCC(=O)O)NC(=O)[C@@H](NC(=O)[C@H](CCSC)NC(=O)[C@H](CCCCN)NC(=O)[C@H](CCCNC(=N)N)NC(=O)[C@H](CC(C)C)NC(=O)[C@H](CC(C)C)NC(=O)[C@H](Cc1ccc(O)cc1)NC(=O)[C@H](CCCCN)NC(=O)[C@@H]1CCCN1C(=O)[C@H](CC(C)C)NC(=O)[C@H](CC(=O)O)NC(=O)[C@@H](NC(=O)[C@H](CO)NC(=O)[C@@H](NC(=O)[C@@H]1CCCN1C(=O)[C@@H]1CCCN1C(=O)CNC(=O)[C@@H]1CCC(=O)N1)[C@@H](C)CC)[C@@H](C)CC)[C@@H](C)CC)[C@@H](C)CC)[C@@H](C)O)C(N)=O` [compound 58] yielded an Emax (CRF2R) of 100% and an Emax (CRF1R) of 16%.

Compound `CC[C@H](C)[C@H](NC(=O)[C@@H](NC(=O)[C@H](CC(=O)O)NC(=O)[C@H](CC(C)C)NC(=O)[C@H](CC(C)C)NC(=O)[C@H](CC(C)C)NC(=O)[C@H](CCCNC(=N)N)NC(=O)[C@H](CC(N)=O)NC(=O)[C@H](CC(N)=O)NC(=O)[C@H](C)NC(=O)[C@H](C)NC(=O)[C@H](CCC(N)=O)NC(=O)[C@H](CCC(N)=O)NC(=O)[C@H](CCCCN)NC(=O)[C@H](CCC(=O)O)NC(=O)[C@H](CCCCN)NC(=O)[C@H](CCC(=O)O)NC(=O)[C@H](CCC(N)=O)NC(=O)[C@H](CCCCN)NC(=O)[C@H](CCC(=O)O)NC(=O)[C@@H](NC(=O)[C@H](CCC(=O)O)NC(=O)[C@@H](NC(=O)[C@H](CCSC)NC(=O)[C@H](CCCCN)NC(=O)[C@H](CCCNC(=N)N)NC(=O)[C@H](CC(C)C)NC(=O)[C@H](CC(C)C)NC(=O)[C@H](CCCCN)NC(=O)[C@@H](NC(=O)[C@@H]1CCCN1C(=O)[C@H](CC(C)C)NC(=O)[C@H](CC(=O)O)NC(=O)[C@@H](NC(=O)[C@H](CO)NC(=O)[C@@H](NC(=O)[C@@H]1CCCN1C(=O)[C@@H]1CCCN1C(=O)CNC(=O)[C@@H]1CCC(=O)N1)[C@@H](C)CC)[C@@H](C)CC)[C@@H](C)O)[C@@H](C)CC)[C@@H](C)CC)[C@@H](C)O)C(N)=O` [compound 45] has an Emax (CRF2R) of 44% and an Emax (CRF1R) of 7%.

`CC[C@H](C)[C@H](NC(=O)[C@@H](NC(=O)[C@H](C)NC(=O)[C@H](CC(C)C)NC(=O)[C@H](CC(C)C)NC(=O)[C@H](CC(C)C)NC(=O)[C@H](C)NC(=O)[C@H](CC(N)=O)NC(=O)[C@H](CC(N)=O)NC(=O)[C@H](C)NC(=O)[C@H](C)NC(=O)[C@H](CCC(N)=O)NC(=O)[C@H](CCC(N)=O)NC(=O)[C@H](CCCCN)NC(=O)[C@H](CCC(=O)O)NC(=O)[C@H](CCCCN)NC(=O)[C@H](CCC(=O)O)NC(=O)[C@H](CCC(N)=O)NC(=O)[C@H](CCCCN)NC(=O)[C@H](CCC(=O)O)NC(=O)[C@@H](NC(=O)[C@H](CCC(=O)O)NC(=O)[C@@H](NC(=O)[C@@H](NC(=O)[C@H](CCCCN)NC(=O)[C@H](CCCNC(=N)N)NC(=O)[C@H](CC(C)C)NC(=O)[C@H](CC(C)C)NC(=O)[C@H](CCC(N)=O)NC(=O)[C@H](CC(C)C)NC(=O)[C@@H]1CCCN1C(=O)[C@H](CC(C)C)NC(=O)[C@H](CC(=O)O)NC(=O)[C@@H](NC(=O)[C@H](CO)NC(=O)[C@@H](NC(=O)[C@@H]1CCCN1C(=O)[C@@H]1CCCN1C(=O)CNC(=O)[C@@H]1CCC(=O)N1)[C@@H](C)CC)[C@@H](C)CC)C(C)C)[C@@H](C)CC)[C@@H](C)CC)[C@@H](C)O)C(N)=O` [compound 349] showed an EC50 (CRF2R) of 0.0137 µM, an Emax (CRF2R) of 100% and an EC50 (CRF1R) of at least 1 µM. For the same compound, the Emax (CRF1R) was 44.2%.
